Cell size, viability and T cell expansion data for one substance are collected here from US20230174933A1, “METHODS OF MAKING CHIMERIC ANTIGEN RECEPTOR-EXPRESSING CELLS” (Novartis AG, priority 2020, published 2023).

Test [1] relates to T cells activated with αCD3αCD28 beads. The test is described as follows: Fold expansion, cell size and viability of cytokine treated T cells after TCR engagement. It is filed as cell-based. Conditions: T cells activated with αCD3αCD28 beads at day 0 in the presence of cytokine. An excerpt:
FIG. 12: Fold expansion of cytokine treated T cells after TCR engagement. T cells were activated with αCD3αCD28 beads at day 0 in the presence of indicated cytokines and then monitored for cell numbers at indicated time points.
T cells were activated with αCD3αCD28 beads at day 0 in the presence of indicated cytokines and then monitored for cell size (FIG. 13A) and viability (FIG. 13B) at indicated time points.

The next test relates to T cells. In words: T cell expansion with cytokines after αCD3/αCD28 bead stimulation. The format is cell-based. Conditions: αCD3/αCD28 bead stimulated T cells plus cytokine. Here is the method:
Previously frozen T cells were thawed and contacted with αCD3/αCD28 dynal beads (cell to bead ratio of 1 to 3) in the presence of indicated cytokines at day 0. From day 3, twice more T cell growth media (RPMI1640, 10% FBS, 2 mM L-glutamin, 100 μM non-essential amino acids, 1 mM sodium pyruvate, 10 mM Hepes, 55 μM β-mercaptoethanol, 10% FBS, and 100 U/ml of penicillin-streptomycin) was added to the plate with indicated cytokines (without cytokine, rhIL2 (50 IU/ml, Novartis), IL6 (long/ml, R&D systems), IL7 (long/ml, Peprotech), IL15 (long/ml, Peprotech), and IL21 (long/ml, Peprotech)) at day 3, 5, 6, 9, 12, 15, and 18. Cells treated without cytokine, IL6, or IL21 were cultured until day 18 and cells treated with IL2, IL7, or IL15 were cultured until day 25.
Cells were harvested at indicated time points and then stained with live/dead dye (eFluro780, eBioscience), CD3 (BioLegend, clone#: OKT3), CD4 (BioLegend, clone#: OKT4), CD8 (BD Bioscience, clone#: RPA-T8), CD45RO (BioLegend, clone#: UCHL1), CCR7 (BioLegend, clone#: G043H7), CD27 (BD Horizon, clone#: L128), CD127 (BioLegend, clone#: A019D5), CD57 (BioLegend, clone#: HCD57), CD126 (BioLegend, clon#: UV4), and CD130 (R&D Systems, clone#: 28126) antibodies. The cells were acquired by FACS Fortessa and then FlowJo program was used for data analysis.

As for IL2: cytokine, in test [1], the cell size result is on record as “did not affect” and the viability result was “did not affect”. Further, the T cell expansion result in the test on T cells is given as “enhanced T cell expansion”.
